# Measurements reported in patent US20050256210A1, “Compounds with activity at estrogen receptors” (priority 2004, published 2005).
# Protein sequences, listed by entry. Tags and fused reporters are not part of them.
# UniProt P03372, whole entry: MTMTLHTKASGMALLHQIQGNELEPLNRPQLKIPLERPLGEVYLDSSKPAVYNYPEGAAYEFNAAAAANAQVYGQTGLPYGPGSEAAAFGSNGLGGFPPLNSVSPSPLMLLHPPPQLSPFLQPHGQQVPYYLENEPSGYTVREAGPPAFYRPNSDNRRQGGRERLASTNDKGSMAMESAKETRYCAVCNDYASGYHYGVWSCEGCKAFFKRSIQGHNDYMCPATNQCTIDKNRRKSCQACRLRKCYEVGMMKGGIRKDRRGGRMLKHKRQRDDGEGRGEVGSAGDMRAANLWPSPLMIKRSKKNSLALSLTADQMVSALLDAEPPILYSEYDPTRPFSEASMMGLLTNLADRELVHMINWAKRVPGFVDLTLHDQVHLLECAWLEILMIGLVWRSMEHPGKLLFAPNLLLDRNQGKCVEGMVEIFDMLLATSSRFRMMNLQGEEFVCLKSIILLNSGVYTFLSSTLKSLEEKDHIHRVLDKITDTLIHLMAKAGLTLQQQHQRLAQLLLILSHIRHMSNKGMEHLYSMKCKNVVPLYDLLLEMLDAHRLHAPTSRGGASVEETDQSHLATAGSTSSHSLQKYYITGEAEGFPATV
# UniProt Q92731, whole entry: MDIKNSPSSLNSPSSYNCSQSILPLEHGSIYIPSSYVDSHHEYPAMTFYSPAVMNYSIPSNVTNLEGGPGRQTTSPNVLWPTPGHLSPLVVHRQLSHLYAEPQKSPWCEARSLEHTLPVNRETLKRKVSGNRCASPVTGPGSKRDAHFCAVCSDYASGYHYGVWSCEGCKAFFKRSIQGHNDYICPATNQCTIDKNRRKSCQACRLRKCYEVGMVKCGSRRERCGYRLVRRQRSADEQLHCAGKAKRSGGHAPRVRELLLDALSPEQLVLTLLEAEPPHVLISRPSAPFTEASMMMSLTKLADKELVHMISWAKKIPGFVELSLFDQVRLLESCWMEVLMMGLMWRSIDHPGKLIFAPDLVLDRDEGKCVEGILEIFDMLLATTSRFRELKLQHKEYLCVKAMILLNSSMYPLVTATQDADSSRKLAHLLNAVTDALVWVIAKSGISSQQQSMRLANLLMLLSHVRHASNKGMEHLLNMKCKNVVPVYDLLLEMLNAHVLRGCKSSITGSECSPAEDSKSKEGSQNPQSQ
# Key:
# [1] = molecular target: Estrogen receptor alpha (ERα) (Homo sapiens, UniProt P03372); test: Receptor Selection and Amplification Technology (R-SAT) functional receptor assay, ERα; conditions: for % Efficacy ERα: NIH3T3 cells, efficacy relative to the reference ligand Estrone; for pEC50 ERα: transfected NIH3T3 cells, agonist activity
# Method: The functional receptor assay, Receptor Selection and Amplification Technology (R-SAT™), was used with minor modifications from the procedure described in U.S. Pat. No. 5,707,798, which is hereby incorporated by reference in its entirety, to screen compounds for efficacy at the Estrogen receptors alpha and beta (ERα, ERβ). NIH3T3 cells were grown in roller bottles to 70-80% confluence. Cells were then transfected for 12-16 h with plasmid DNAs using Polyfect (Qiagen Inc.) as per the manufacturer's protocol. R-SAT assays were typically performed by transfecting 30 ug/bottle of receptor and 50 ug/bottle of β-galactosidase plasmid DNA. All receptor and helper constructs used were in mammalian expression vectors. Helpers are defined as signaling molecules that modulate both ligand-dependent and/or ligand-independent function of the ER receptors, typically co-activators and kinases. NIH3T3 cells were transfected for 12-16 h, then trypsinized and frozen in DMSO. Frozen cells were later thawed, plated at 10,000-40,000 cells per well of a 96 well plate containing 4-(1-Phenyl-cyclohexyl)-phenol. Cells were then grown in a humidified atmosphere with 5% ambient CO2 for five days. Media was then removed from the plates and marker gene activity was measured by the addition of the β-galactosidase substrate o-nitrophenyl β-D-galactopyranoside (ONPG, in PBS with 5% NP-40). The resulting colorimetric reaction was measured in a spectrophotometric plate reader (Titertek Inc.) at […]. All data were analyzed using the computer program XLFit (IDBSm).
# These experiments provided a molecular profile, or fingerprint, for each agent tested at the human Estrogen receptors.
# [2] = molecular target: Estrogen receptor beta (ERβ) (Homo sapiens, UniProt Q92731); test: Receptor Selection and Amplification Technology (R-SAT) functional receptor assay, ERβ; conditions: for % Efficacy ERβ: NIH3T3 cells, efficacy relative to the reference ligand Estrone; for pEC50 ERβ: transfected NIH3T3 cells, agonist activity
% Efficacy ERα [1] [%],pEC50 ERα [1],% Efficacy ERβ [2] [%],pEC50 ERβ [2],Compound
13,<5.0,25,7.0,Oc1ccc(C2(c3c(F)cccc3Cl)CCCCC2)cc1
30,5.8,57,7.1,Oc1ccc(C2(c3ccccc3F)CCCCC2)cc1F
